# Measurements reported in patent US7128895B2, “Use of bile acid derivatives conjugated with metal ion chelated complexes for the diagnostic assessment of microvascular permeability” (Bracco Imaging S.p.A., priority 2000, dated 2006).
# Experiment: Urinary and faecal excretion screening of an intravenously administered contrast agent
# Assay type: in vivo
# Settings: rats, even at the highest injected doses
# Protocol: Experimental Model for the Urinary and Faecal Excretion Screening of an Intravenously Administered Contrast Agent
# The experimentation is performed on 6 rats. The animals are intravenously injected (in the marginal caudal vein) with single doses of 0.1 and 1.0 mmol·kg^−1 of B22956/1 contrast agent at an injection rate of 6 mL/min.
# The rats are individually housed in metabolic cages and urine and faeces are collected daily, for 7 days after administration. In particular faeces and urine are collected at the following time periods: 0 to 24 h,and every 24 hours up to 7 days.
# The animals are killed by decapitation at 7 days post-dosing and animals blood is collected in heparinised test tubes and then centrifuged for 15 min at 3500·g to separate the plasma. After bleeding, liver, spleen, femurs and kidneys are collected and weighted to evaluate residual content of Gd in the organs. Residual gadolinium concentration in the organic samples is determined by inductively-coupled plasma atomic emission spectrometry (ICP-AES) with a Jobin-Yvon Mod 24 spectrometer
# Excretion Screening of Rats Injected with B22956/1.
# The screening is performed using the contrast compound as 0.25M solution. The agent in intravenously injected in 6 rats with single doses of 0.1 and 1.0 mmol·kg^−1 of animal body weight.
substance,measurement,value
"gadolinium complex of the [3(S),5,12]-3-[[4-[bis[2-[bis(carboxymethyl)-amino]ethyl]amino]-4-carboxy-1-oxobutyl]amino]-12-hydroxycholan-24-oic acid [B22956/1]",clinical signs between administration and sacrifice,no animal showed any clinical sign
